Measurements as given in patent US20240277758A1.

Experiment: Solubility in water/organic mixtures
Conditions: same water/organic mixtures; acetonitrile mixture only after adjusting water to 70%

## sodium thiosulfate
  solubility of sodium thiosulfate: ≥ 94 mg/mL
